Literature values, collected in patent US20170247459A1, “COMBINATION THERAPY OF ANTIBODIES AGAINST HUMAN CSF-1R AND USES THEREOF” (HOFFMANN-LA ROCHE INC., priority 2012, published 2017).

Amino acid sequences for entries named in this document (tags omitted). Residues count along the entry.
UniProt P25942, 21-277: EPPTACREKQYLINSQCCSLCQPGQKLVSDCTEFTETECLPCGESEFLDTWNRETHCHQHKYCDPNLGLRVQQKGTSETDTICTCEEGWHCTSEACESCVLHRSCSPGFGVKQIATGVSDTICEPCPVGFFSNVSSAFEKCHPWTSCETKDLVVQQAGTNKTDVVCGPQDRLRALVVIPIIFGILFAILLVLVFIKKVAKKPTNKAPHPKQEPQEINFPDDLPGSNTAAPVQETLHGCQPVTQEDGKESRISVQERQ

Target: CD40 (Homo sapiens, UniProt P25942)
Conditions: cited from earlier work

## CP-870,893: fully human IgG2 CD40 agonist antibody developed by Pfizer, VH SEQ ID NO: 88, VL SEQ ID NO: 89
  blocking of binding of CD40L (in words): does not block binding of CD40L
read-out: KD (binds CD40)
  Kd: 348 pM
